Drawing on ChEMBL document CHEMBL4138055, “Determination and reduction of translocator protein (TSPO) ligand rs6971 discrimination” (Medchemcomm, 2017), this text covers Ki for 1 compound.

By UniProt entry, the sequences of proteins in these tests, tags left out.
UniProt P30536, whole entry: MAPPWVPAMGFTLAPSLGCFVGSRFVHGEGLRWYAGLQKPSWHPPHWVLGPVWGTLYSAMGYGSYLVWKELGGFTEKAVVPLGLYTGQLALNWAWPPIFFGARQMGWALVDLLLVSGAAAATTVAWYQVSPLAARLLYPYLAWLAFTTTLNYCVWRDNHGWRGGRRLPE

The term Ki denotes the equilibrium dissociation constant of an inhibitor or competing ligand from its target. A high value points to weaker binding.

This test deals with Translocator protein (Homo sapiens, UniProt P30536). Description: Displacement of [3H]PK11195 from human wild type TSPO expressed in HEK293T cell membranes after 90 mins by scintillation counting method. Background: In a radioligand displacement assay an active substance lowers the binding of a labelled ligand.

In the case of `CCC(C)N(C)C(=O)c1cc2ccccc2c(-c2ccccc2Cl)n1` (stereo unspecified) [PK-11195], affinity was put at a Ki of 29.2 nM.
